Source: US7375074B2, “Body weight gain inhibitor” (priority 2001, dated 2008)

Target: T1, GPR7 (Homo sapiens, UniProt P48145)
T1 sequence (P48145 1-328): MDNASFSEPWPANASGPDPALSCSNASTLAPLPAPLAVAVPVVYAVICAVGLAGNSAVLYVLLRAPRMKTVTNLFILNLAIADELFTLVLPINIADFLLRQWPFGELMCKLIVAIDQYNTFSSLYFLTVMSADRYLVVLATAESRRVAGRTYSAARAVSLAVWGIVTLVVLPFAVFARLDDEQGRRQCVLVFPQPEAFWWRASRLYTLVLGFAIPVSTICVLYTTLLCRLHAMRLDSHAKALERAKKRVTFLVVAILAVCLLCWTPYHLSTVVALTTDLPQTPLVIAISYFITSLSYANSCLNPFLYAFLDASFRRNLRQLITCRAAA
Assay: Receptor binding using [Phe2,125I-Tyr10]-human GPR8 ligand (1-20), membrane fraction of GPR7 expressing CHO cells
Parameters: expressed in transfected cells; host or cells: CHO dhfr- cells, plasmid pAKKO-Human GPR7; membrane fraction
Details: GPR7 expressing CHO cell membrane fraction 15 μg/ml, read-out: concentration of 50% inhibition (IC50) of binding
Method: Using [Phe^2, ^125I-Tyr^10]-human GPR8 ligand (1-20) prepared as described in Example 4, the membrane fraction from GPR7 expressing CHO cells prepared by the method as described in Reference Example 82 and the cell membrane fraction from GPR8 expressing cells prepared by the method as described in Reference Example 6, a receptor binding assay was carried out.
Cell membrane fractions prepared from GPR7 expressing CHO cells and GPR8 expressing CHO cells, were diluted to various concentration with assay buffer (25 mM Tris-HCl, 5 mM EDTA, 0.05% CHAPS, 0.1% BSA, 0.5 mM PMSF, 1 μg/ml Pepstatin, 4 μg/ml E-64, 20 μg/ml Leupeptin, pH7.4), and 200 μl each of the diluent was dispensed into polypropilene test tube (Falcon 2053). […] After filtration, a radioactivity remaining on the filter was counted using γ-counter, and an amount of specific binding was estimated by subtracting an amount of non-specific binding from an amount of maximum binding.
The inhibition of binding for GPR7 receptor or GPR8 receptor in the test sample (the inhibition rate (%)) is represented by the ratio of the values obtained by subtracting a radioactivity (X) remaining on the filter in the case where the test sample and of [Phe^2, ^125I-Tyr^10]-human GPR8 ligand (1-20) were added from the maximum binding (TB) to the specific binding (SB) ((TB−X)/SB×100(%)). […]

`CSCC[C@H](NC(=O)[C@H](CC(C)C)NC(=O)[C@H](CC(C)C)NC(=O)CNC(=O)[C@H](C)NC(=O)[C@H](C)NC(=O)[C@H](CCCNC(=N)N)NC(=O)CNC(=O)[C@@H](NC(=O)[C@@H](NC(=O)[C@H](Cc1c[nH]cn1)NC(=O)[C@H](Cc1ccc(O)cc1)NC(=O)[C@H](CCCNC(=N)N)NC(=O)[C@@H]1CCCN1C(=O)[C@H](CO)NC(=O)[C@H](C)NC(=O)[C@@H](NC(=O)[C@H](Cc1c[nH]cn1)NC(=O)[C@H](CCCCN)NC(=O)[C@H](Cc1ccc(O)cc1)NC(=O)[C@@H](N)Cc1c[nH]c2ccccc12)C(C)C)[C@@H](C)O)C(C)C)C(=O)NCC(=O)N[C@@H](CC(C)C)C(=O)O` [hGPR8L(1-23)] gave an IC50 of 0.13 nM.
